Columns and labels:
[1] = biological target: T1, human mu-opioid receptors (Homo sapiens, UniProt P35372); assay type: cell-based
[2] = biological target: T1, human mu-opioid receptors; experiment: [35S]GTPγS binding; assay type: biochemical; details: 10 µM

Sequences of proteins named here, by UniProt entry; tags and fusion partners are left off.
UniProt P35372, whole entry: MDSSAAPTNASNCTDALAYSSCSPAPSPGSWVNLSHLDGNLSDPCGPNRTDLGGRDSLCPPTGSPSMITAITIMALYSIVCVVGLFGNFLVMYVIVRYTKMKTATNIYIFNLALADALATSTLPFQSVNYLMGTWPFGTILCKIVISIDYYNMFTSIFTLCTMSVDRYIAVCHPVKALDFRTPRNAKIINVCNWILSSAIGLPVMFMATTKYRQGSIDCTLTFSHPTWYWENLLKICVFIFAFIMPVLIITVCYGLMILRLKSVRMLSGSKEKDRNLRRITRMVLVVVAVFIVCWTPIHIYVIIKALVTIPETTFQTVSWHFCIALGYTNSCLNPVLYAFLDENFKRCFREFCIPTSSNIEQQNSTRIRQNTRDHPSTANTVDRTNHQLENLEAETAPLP

Substance: DAMGO [reference compound]
- Effect on AC-activity / intracellular cAMP in intact CHO-hMOR cells [1]: significantly inhibited AC-activity
- G-protein activation in CHO-hMOR homogenates [2]: 22 ± 3.0 fmol/mg

Reference: publication PMC3685885 (Toxicology and applied pharmacology, 2013)
